Results published in patent US20090053213A1 (MorphoSys, published 2009).
Blank lines part the entries; values can stand above or below the binder they belong to.

Amino acid sequences for entries named in this document (tags omitted). Residues count along the entry.
UniProt P04141, 18-144: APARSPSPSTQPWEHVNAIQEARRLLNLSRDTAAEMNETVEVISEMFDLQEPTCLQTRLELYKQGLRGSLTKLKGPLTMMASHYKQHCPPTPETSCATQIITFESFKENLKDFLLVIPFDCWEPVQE

Legend:
human GM-CSF [1] = target: T1, human GM-CSF (human, UniProt P04141 18-144); assay: solution equilibrium titration (SET, ECL/BioVeris), Fab with human GM-CSF (Leucomax) in solution
T1 construct: mature; the preparation is named under assay or readout; also called hGM-CSF; recombinant human GM-CSF

human GM-CSF [2] = target: T1, human GM-CSF; assay: cell-based or functional assay
human GM-CSF [3] = target: T1, human GM-CSF; assay: FACS receptor inhibition assay: antibody pre-incubated with 0.5 µg/ml biotinylated GM-CSF, binding to GM-CSF receptor alpha on CHO-GMRa#11 cells
human GM-CSF [4] = target: T1, human GM-CSF; assay: SPR (Biacore), Fab over immobilized recombinant human GM-CSF (Peprotech), F1 chip; affinity estimated from off-rates
human GM-CSF [5] = target: T1, human GM-CSF; assay: cell-based or functional assay; remark: listed apart in the source
human GM-CSF [6] = target: T1, human GM-CSF; assay: FACS receptor inhibition assay: inhibition of binding of 0.5 µg/ml biotinylated GM-CSF to GM-CSF receptor alpha on CHO-GMRa#11 cells
human GM-CSF [7] = target: T1, human GM-CSF; assay: cell-based or functional assay; remark: listed apart in the source
human GM-CSF [8] = target: T1, human GM-CSF; assay: solution equilibrium titration (SET, ECL), IgG1 with human recombinant GM-CSF in solution

- Kd (human GM-CSF [1]): 0.4 pM
- IC50 (pM) in TF-1 proliferation assay, human GM-CSF 0.25 ng/ml (human GM-CSF [2]): 90 pM
- IC50 x-fold improved compared to BVD2-21C11, TF-1 proliferation assay (human GM-CSF [2]): 72.9 fold
- IC50 x-fold improved compared to Mab215, TF-1 proliferation assay (human GM-CSF [2]): 47.9 fold
- IC50 (human GM-CSF [3]): 26000 pM
- Kd (human GM-CSF [4]): 7 pM
- fold improvement of IC50 in TF-1 proliferation assay compared to parental MOR03929 (human GM-CSF [5]): > 2000 fold
- % inhibition at 5 µg/ml antibody (human GM-CSF [6]): ~75%
B1: MOR04357 Fab (Fab, V domains shown)
VH: QVQLVESGGGLVQPGGSLRLSCAASGFTFSSYWMNWVRQAPGKGLEWVSGIENKYAGGATYYAASVKGRFTISRDNSKNTLYLQMNSLRAEDTAVYYCARGFGTDFWGQGTLVTVSS
VL: DIELTQPPSVSVAPGQTARISCSGDSIGKKYAYWYQQKPGQAPVLVIYKKRPSGIPERFSGSNSGNTATLTISGTQAEDEADYYCSAWGDKGMVFGGGTKLTVLG
notes: X-cloned Fab (VH of MOR04252 x VL of MOR04302) with FLAG and 6xHis tags; also called Fab MOR04357

- IC50 (pM) in TF-1 proliferation assay, human GM-CSF (E. coli) (human GM-CSF [7]): 48 pM
- IC50 (pM) in TF-1 proliferation assay, human GM-CSF (HEK293) (human GM-CSF [7]): 11 pM
- fold improvement of IC50 in TF-1 proliferation assay compared to Fab MOR03929 (human GM-CSF [5]): > 2000 fold
- Kd (human GM-CSF [8]): 1.1 pM
B2: MOR04357 IgG1 (antibody, V domains shown)
VH: B1 VH
VL: B1 VL
notes: expressed in HKB11 cells; also called IgG1 MOR04357
